CCT modulator – modulators of cytosolic chaperonin (CCT/TRiC) activity; purified chaperonin ATPase assay, HTRF ADP detection, 30 min; activity change, % (no concentration beside the values), hits read low; AID 651819; hit rate 0.3% among 360,000; in the data active = activity change below about -30%
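ATPase activity: ADP formed was measured by HTRF Transcreener (665/615 nm ratio) after 30 min at 37 deg C with 10 uM ATP. Compounds screened at one 76 uM concentration against 40 or 20 nM TRiC in Tris pH 7.4/KCl/MgCl2/DTT buffer.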
Rango dissoc inh – inhibition of RanGTP-driven Rango-importin beta dissociation; Biochemical FRET Rango-importin beta, RanGTP-induced dissociation; Potency, µM (series often up to 46.1 µM); hit rate 0.071% among 340,000; AID 540253; also: nearly all actives have a fitted effect of over 45% in size
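Compounds preincubate 5 min with complex of recombinant Rango and importin beta in PBS with 1 mM DTT. Ran (0.6 uM) loaded with 2 mM GTP plus 0.2 uM RCC1 starts dissociation; FRET is recorded 45 min later.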
Rango complex inh – inhibitors of Rango-importin beta complex formation | Q14974 | Rango CFP/YFP FRET sensor + importin beta, 45 min | Potency, µM (highest dose often 92.2 µM) | hit rate 0.031% among 340,000 | AID 540263; also: nearly all actives have a fitted effect of over 15% in size
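Inhibition scored from the CFP 486 nm/YFP 530 nm FRET ratio 45 min after adding 0.125 microM importin beta to 50 nM Rango biosensor preincubated 5 min with compound (room temperature, PBS with DTT, Tween-20, BSA). No-importin wells as positive control.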
MmCpn inh – blocks the Methanococcus maripaludis chaperonin Mm-Cpn | purified Mm-Cpn ATPase, ADP Transcreener TR-FRET | Potency, µM (doses to about 76.9 µM), actives largely listed as inhibitors | hit rate 0.031% among 330,000; active = well fitted inhibition curve with a large enough effect; inconclusive = small, poorly fitted or top-dose-only effect; also: nearly all actives have a fitted effect of over 80% in size
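Purified archaeal chaperonin (25 nM final) was preincubated with compound for 10 min at 37°C, then ATP (10 uM final) was added for 30 min at 37°C in Tris pH 7.4/KCl/MgCl2/DTT buffer. ADP was quantified by HTRF Transcreener TR-FRET.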
Each line names hits and unclear results; the compound was inactive in the other large screens. Most compounds without a hit are left out; they make up all but 0.39% or so of the library. Unless noted, calls follow the shape of the full dose curve.

Cc1ccc(S(=O)(=O)c2ccc(Cl)cc2)cc1S(N)(=O)=O	CCT modulator -71
O=C1CSC(=S)N1Nc1ccccc1	CCT modulator -34 (no result: MmCpn inh)
O=c1n(Cc2ccccc2)c(O)c2n1Cc1ccccc1N=C2c1ccccc1	CCT modulator -40 (no result: Rango dissoc inh, Rango complex inh, MmCpn inh)
CCCCn1c(O)c2n(c1=O)Cc1ccccc1N=C2c1ccc(OC)cc1	none (no result: Rango dissoc inh, Rango complex inh, MmCpn inh)
Cc1ccc(N(C)C(=O)N2CCN(S(=O)(=O)c3ccc(C)c(C)c3)CC2)cc1	none
Cc1ccc(S(=O)(=O)N2CCN(C(=O)N(C)C)CC2)cc1C	CCT modulator -52
N#Cc1ccccc1S(=O)(=O)N1CCN(C(=O)c2cn(-c3ccccc3)nc2-c2cccnc2)CC1	none
Cc1cc(NC(=O)CS(=O)(=O)c2ccc(Cl)cc2)no1	CCT modulator -87
Cc1cc(NC(=O)CS(=O)(=O)c2ccc(F)cc2)no1	none
Cc1ccc(S(=O)(=O)CCC(=O)OCC(=O)Nc2ccc(N3CCOCC3)cc2)cc1	none
O=S(=O)(c1cccc(NC(=S)Nc2ccc(Br)cc2Cl)c1)N1CCOCC1	CCT modulator -63
O=C(Cc1ccc(Br)cc1)Nc1cccc(S(=O)(=O)N2CCOCC2)c1	none
COc1cccc(NC(=O)C2(C)CCN2C(=O)CCc2ccc(Cl)cc2Cl)c1 (stereo unspecified)	none (no result: Rango dissoc inh, Rango complex inh, MmCpn inh)
C=CCCC(=O)N1CCC(CCC(=O)NC2CC2)CC1	none
CSCC(=O)N1CCC(CCC(=O)NC2CC2)CC1	CCT modulator -53
Cc1cc(Cc2ccc(N)c(C)c2)ccc1N	none
Cc1cc(Cc2cc(C)c(O)c(CO)c2)cc(CO)c1O	Rango complex inh 65µM (no result: MmCpn inh)
COc1cnn(-c2ccc(F)cc2)c(=O)c1Br	CCT modulator -66
COc1cc(OC)nc(-n2ncc(OC)c(Br)c2=O)n1	none
C=CCNC(=O)/C(=C\c1ccc(OC)cc1)NC(=O)c1ccc([N+](=O)[O-])cc1	CCT modulator -35
Cc1ccc(C)c(NC(=O)Cn2nnc(-c3ccc(N4CCOCC4)cc3)n2)c1	CCT modulator -79
Cc1ccc(CNC(=O)CCn2cc(-c3ccc(C)cc3)nc2CCN)cc1	none
COC(=O)c1sc(-c2ccc(Cl)cc2)cc1N	CCT modulator -40
CCN1C(=NCc2cc(OC)c(OC)c(OC)c2)N[C@@H](c2cccc(F)c2)C(C(=O)OC)=C1C	none (no result: CCT modulator, Rango dissoc inh, Rango complex inh)
Nc1ccc2c(c1Br)Cc1ccccc1-2	CCT modulator -41 (no result: MmCpn inh)
COCCCNCCOCCOc1ccc(C)cc1[N+](=O)[O-]	CCT modulator -40
COCCCNCCOc1ccc(C)cc1[N+](=O)[O-]	none
O=C(CSc1nc2cc(Cl)ccc2o1)N1CCOCC1	CCT modulator -31
O=C(CCSc1nc2cc(Cl)ccc2o1)N1CCOCC1	none
Cc1c(C(=O)N2CCOCC2)oc2ccc(S(=O)(=O)N3CCCC3)cc12	MmCpn inh 35µM
Cc1cc(Cl)c2oc(C(=O)N3CCN(C(=O)c4ccco4)CC3)c(C)c2c1	none
Cc1cc(Cl)c2oc(C(=O)N3CCOCC3)c(C)c2c1	CCT modulator -35 (no result: Rango dissoc inh, Rango complex inh, MmCpn inh)
Cc1c(OC(C)C(=O)NCC2CCC(C(=O)O)CC2)ccc2c3c(c(=O)oc12)CCCC3 (stereo unspecified)	CCT modulator -37
Cc1cc(=O)oc2c(C)c(OC(C)C(=O)NCC3CCC(C(=O)O)CC3)ccc12 (stereo unspecified)	none
CC(=O)Nc1ccc(NC(=O)C(C)OC(=O)c2cccc(S(=O)(=O)N3CCCC3)c2)cc1 (stereo unspecified)	none
CCCc1cc(=O)oc2cc(OC(=O)CN3C(=O)NC4(CCCC4)C3=O)ccc12	Rango dissoc inh 12µM, Rango complex inh inconclusive
CCOn1c(=O)c(=O)n(OCc2ccccc2)c2ccccc21	none
CC1(C)C(=O)N(OCc2ccccc2)C(C)(C)C(=O)N1OCc1ccccc1	CCT modulator -32
COc1ccc(C(C)(O)c2nc(-c3cccc(C(F)(F)F)c3)cs2)cc1 (stereo unspecified)	none (no result: Rango dissoc inh, Rango complex inh, MmCpn inh)
COc1ccccc1Nc1ncccc1[N+](=O)[O-]	CCT modulator -49
Cc1ccc(CCNS(=O)(=O)c2cnc[nH]2)cc1	CCT modulator -39
O=S(=O)(NCc1ccc(Cl)cc1)c1cnc[nH]1	none
COc1cccc(CN2C(=O)CCC2(C)C(=O)NCCc2ccc(OC)c(OC)c2)c1 (stereo unspecified)	none
Cc1nnc(Sc2cc(NCCO)c([N+](=O)[O-])c3nonc23)s1	CCT modulator -58
Cc1nnc(Sc2cc(NCCCO)c([N+](=O)[O-])c3nonc23)s1	none
CCN(CC)S(=O)(=O)c1ccc(N2CCOCC2)c(NC(=O)c2ccccc2)c1	none
CCN(CC)S(=O)(=O)c1ccc(N2CCOCC2)c(NC(=O)C23CC4CC(CC(Cl)(C4)C2)C3)c1	CCT modulator -72
CCN1CCCC1CNC(=O)C(=O)NCCc1ccc(OC)c(OC)c1 (stereo unspecified)	CCT modulator -34
COc1ccc(CCNC(=O)C(=O)NCC2CCCN2S(=O)(=O)c2ccccc2)cc1OC (stereo unspecified)	none
O=C(Nc1nnc2n1CCS2)c1ccco1	CCT modulator -73
O=C(Nc1ccc2c(c1)nc1n2CCSC1)c1ccco1	Rango dissoc inh inconclusive, Rango complex inh inconclusive
CN=C(NC#N)SCC(=O)c1ccc(Cl)cc1Cl	CCT modulator -38
CCCCCCCCn1ccc(=N)cc1	none
CCCCCCCCCCCCCCCCn1cc[n+](C)c1	Rango dissoc inh inconclusive, Rango complex inh 65µM
CCc1nc2ccc(C(=O)NCCC(C)C)cn2c1N(CCN(C)C)CC1CC1	none (no result: Rango dissoc inh, Rango complex inh, MmCpn inh)
CCOC(=O)c1c(C)[nH]c(C(=O)/C(C#N)=C/c2ccc(OCC)cc2)c1C	CCT modulator -119
Cc1ccc(Cl)cc1N1CCN(S(=O)(=O)c2ccc3c(c2)CC(=O)N3C)CC1	CCT modulator -54
CCn1ncc(Br)c1C(=O)Nc1ccccc1OC	CCT modulator -35
CCc1nc2ccccc2c(=O)n1/N=C/c1ccc(Cl)cc1	CCT modulator -33 (no result: MmCpn inh)
COc1ccc(/C(N)=N/O)cc1O	CCT modulator -30
Cc1ccc(CCNC(=O)CCS(=O)(=O)c2ccc3c(c2)oc(=O)n3C)cc1	none
Cn1c(=O)oc2cc(S(=O)(=O)CCC(=O)NCCc3ccccc3)ccc21	CCT modulator -65
CC1C/C(=C/c2ccncc2)C(=O)/C(=C/c2ccncc2)C1 (stereo unspecified)	CCT modulator -38
CN1/C(=C\C=C2/SC(=S)N(CC(=O)O)C2=O)C(C)(C)c2ccccc21	Rango dissoc inh inconclusive, Rango complex inh 23µM
CN1CCS/C1=C\C=C1/SC(=S)N(CC(=O)O)C1=O	Rango dissoc inh inconclusive, Rango complex inh 58µM
C=CCN1C(=O)/C(=C\C=C2\N(C)c3ccccc3C2(C)C)SC1=S	none
CCOC(=O)c1c(/C=N/Nc2ccccc2)c2sc(C)cc2n1C	none (no result: CCT modulator, Rango dissoc inh, Rango complex inh)
C[C@H](CO)N1C[C@H](C)[C@@H](CN(C)C(=O)Nc2ccc(C(F)(F)F)cc2)Oc2c(NC(=O)Nc3ccccc3)cccc2C1=O	none
CC(C)NC(=O)Nc1ccc2c(c1)C(=O)N([C@H](C)CO)C[C@H](C)[C@@H](CN(C)C(=O)Nc1ccccc1)O2	none
